Measurements published in paper PMC6553764 (PLoS ONE, 2019).

What was measured:
Details in all cases: both partners purified
Kap95 [1] = biological target: T1, Kap95 (UniProt Q06142 1-861); test: SPR; FSFG6 immobilised via C-terminal Cys (GLC chip), low density 415 RU; association 30 s; 100 ul/min, TBT-PVP, 25 C; Langmuir isotherm analysis
T1 construct: Kap95, a karyopherin transport factor; also called Kap95 without the GST domain
T1 sequence (looked up): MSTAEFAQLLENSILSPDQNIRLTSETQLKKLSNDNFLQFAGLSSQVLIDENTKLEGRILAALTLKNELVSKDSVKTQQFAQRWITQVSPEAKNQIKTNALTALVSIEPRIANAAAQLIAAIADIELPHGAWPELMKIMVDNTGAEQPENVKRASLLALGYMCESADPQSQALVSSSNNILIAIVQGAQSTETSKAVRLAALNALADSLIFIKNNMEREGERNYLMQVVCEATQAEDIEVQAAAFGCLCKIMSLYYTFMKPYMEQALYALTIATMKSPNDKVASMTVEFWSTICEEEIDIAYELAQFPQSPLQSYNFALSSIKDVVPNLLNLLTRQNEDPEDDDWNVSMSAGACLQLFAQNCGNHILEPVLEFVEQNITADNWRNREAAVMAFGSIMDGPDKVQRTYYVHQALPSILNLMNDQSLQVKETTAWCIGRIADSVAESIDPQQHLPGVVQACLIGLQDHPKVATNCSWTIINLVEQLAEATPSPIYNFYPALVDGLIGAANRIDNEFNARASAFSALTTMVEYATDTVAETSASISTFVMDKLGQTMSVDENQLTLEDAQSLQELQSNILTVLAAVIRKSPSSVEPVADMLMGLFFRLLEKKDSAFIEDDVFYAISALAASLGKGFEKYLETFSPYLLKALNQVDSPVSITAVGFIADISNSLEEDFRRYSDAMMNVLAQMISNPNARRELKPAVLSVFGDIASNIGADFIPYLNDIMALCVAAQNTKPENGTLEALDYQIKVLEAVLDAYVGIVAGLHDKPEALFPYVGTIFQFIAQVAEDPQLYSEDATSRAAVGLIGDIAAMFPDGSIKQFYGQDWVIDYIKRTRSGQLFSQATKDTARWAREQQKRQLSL

Kap95 [2] = biological target: T1, Kap95; test: SPR; FSFG6 immobilised via C-terminal Cys (GLC chip), medium density 550 RU; association 30 s; 100 ul/min, TBT-PVP, 25 C; fit: one-to-one plus mass transport limitation model
Kap95 [3] = biological target: T1, Kap95; test: SPR; FSFG6 immobilised via C-terminal Cys (GLC chip), medium density 550 RU; association 60 s; 100 ul/min, TBT-PVP, 25 C; fit: one-to-one model
Kap95 [4] = biological target: T1, Kap95; test: SPR; FSFG6 immobilised via C-terminal Cys (GLC chip), low density 415 RU; association 15 s; 100 ul/min, TBT-PVP, 25 C; Langmuir isotherm analysis
Kap95 [5] = biological target: T1, Kap95; test: SPR; FSFG6 immobilised via C-terminal Cys (GLC chip), low density 415 RU; association 30 s; 100 ul/min, TBT-PVP, 25 C; fit: one-to-one model
Kap95 [6] = biological target: T1, Kap95; test: SPR; FSFG6 immobilised via C-terminal Cys (GLC chip), low density 415 RU; association 60 s; 100 ul/min, TBT-PVP, 25 C; Langmuir isotherm analysis
Kap95 [7] = biological target: T1, Kap95; test: SPR; FSFG6 immobilised via C-terminal Cys (GLC chip), high density 791 RU; association 60 s; 100 ul/min, TBT-PVP, 25 C; Langmuir isotherm analysis
Kap95 [8] = biological target: T1, Kap95; test: SPR; FSFG6 immobilised via C-terminal Cys (GLC chip), high density 791 RU; association 120 s; 100 ul/min, TBT-PVP, 25 C; fit: one-to-one plus mass transport limitation model
Kap95 [9] = biological target: T1, Kap95; test: SPR; FSFG6 immobilised via C-terminal Cys (GLC chip), low density 415 RU; association 120 s; 100 ul/min, TBT-PVP, 25 C; fit: one-to-one plus mass transport limitation model
Kap95 [10] = biological target: T1, Kap95; test: SPR; FSFG6 immobilised via C-terminal Cys (GLC chip), medium density 550 RU; association 30 s; 100 ul/min, TBT-PVP, 25 C; Langmuir isotherm analysis
Kap95 [11] = biological target: T1, Kap95; test: SPR; FSFG6 immobilised via C-terminal Cys (GLC chip), low density 415 RU; association 30 s; 100 ul/min, TBT-PVP, 25 C; fit: one-to-one plus mass transport limitation model
Kap95 [12] = biological target: T1, Kap95; test: SPR; FSFG6 immobilised via C-terminal Cys (GLC chip), low density 415 RU; association 120 s; 100 ul/min, TBT-PVP, 25 C; Langmuir isotherm analysis
Kap95 [13] = biological target: T1, Kap95; test: SPR; FSFG6 immobilised via C-terminal Cys (GLC chip), high density 791 RU; association 60 s; 100 ul/min, TBT-PVP, 25 C; fit: one-to-one model
Kap95 [14] = biological target: T1, Kap95; test: SPR; FSFG6 immobilised via C-terminal Cys (GLC chip), high density 791 RU; association 30 s; 100 ul/min, TBT-PVP, 25 C; Langmuir isotherm analysis

Kd (Kap95 [1]): 76.8 nM
Kd (Kap95 [2]): 0.74 nM
koff (Kap95 [2]): 0.0033 s⁻¹
kon (Kap95 [2]): 4.45e+06 M⁻¹ s⁻¹
Kd (Kap95 [3]): 3.15 nM
koff (Kap95 [3]): 0.00275 s⁻¹
kon (Kap95 [3]): 873000 M⁻¹ s⁻¹
Kd (Kap95 [4]): 64.2 nM
Kd (Kap95 [5]): 5.65 nM
koff (Kap95 [5]): 0.00301 s⁻¹
kon (Kap95 [5]): 532000 M⁻¹ s⁻¹
Kd (Kap95 [6]): 43.3 nM
Kd (Kap95 [7]): 22.6 nM
Kd (Kap95 [8]): 1.65 nM
koff (Kap95 [8]): 0.00275 s⁻¹
kon (Kap95 [8]): 1.66e+06 M⁻¹ s⁻¹
Kd (Kap95 [9]): 28.3 nM
koff (Kap95 [9]): 0.00326 s⁻¹
kon (Kap95 [9]): 115000 M⁻¹ s⁻¹
Kd (Kap95 [10]): 63.5 nM
Kd (Kap95 [11]): 1.05 nM
koff (Kap95 [11]): 0.00449 s⁻¹
kon (Kap95 [11]): 4.29e+06 M⁻¹ s⁻¹
Kd (Kap95 [12]): 41.9 nM
Kd (Kap95 [13]): 1.7 nM
koff (Kap95 [13]): 0.0022 s⁻¹
kon (Kap95 [13]): 1.29e+06 M⁻¹ s⁻¹
Kd (Kap95 [14]): 54.7 nM
B1: FSFG6-Cys-His6 (domain or fragment)
chain: not shown
modifications: conjugated to the sensor surface through the C-terminal cysteine (maleimide)
notes: Segment of Nsp1FG (S. cerevisiae Nsp1) with six repeats of the FxFG-type region, followed by an added Cys, LE and His6
